{"source": "paper PMC11767819", "about": "“Drug Screening of Flavonoids as Potential VEGF Inhibitors Through Computational Docking and Cell Models” (Molecules, 2025)", "test_system": "NF-κB in RAW 264.3 cells", "assay": "Luciferase activity of NF-κB, VEGF-induced", "assay_type": "cell-based", "conditions": "chemicals 1, 10 and 25 µM, avastin 10 ng/mL", "data": [{"smiles": "Cc1c(O)c(C)c2c(c1O)C(=O)C[C@@H](c1ccc(O)cc1)O2", "note": "[farrerol]", "values": [{"measurement": "Effect on VEGF-induced NF-κB activity (in words)", "value": "suppressed in dose-dependent manners"}]}]}
